Assay results taken from patent US8080665B2 (Chugai Seiyaku Kabushiki Kaisha, priority 2003, dated 2011).

Amino acid sequences for entries named in this document (tags omitted). Residues count along the entry.
UniProt O95822, 40-493 limits assumed: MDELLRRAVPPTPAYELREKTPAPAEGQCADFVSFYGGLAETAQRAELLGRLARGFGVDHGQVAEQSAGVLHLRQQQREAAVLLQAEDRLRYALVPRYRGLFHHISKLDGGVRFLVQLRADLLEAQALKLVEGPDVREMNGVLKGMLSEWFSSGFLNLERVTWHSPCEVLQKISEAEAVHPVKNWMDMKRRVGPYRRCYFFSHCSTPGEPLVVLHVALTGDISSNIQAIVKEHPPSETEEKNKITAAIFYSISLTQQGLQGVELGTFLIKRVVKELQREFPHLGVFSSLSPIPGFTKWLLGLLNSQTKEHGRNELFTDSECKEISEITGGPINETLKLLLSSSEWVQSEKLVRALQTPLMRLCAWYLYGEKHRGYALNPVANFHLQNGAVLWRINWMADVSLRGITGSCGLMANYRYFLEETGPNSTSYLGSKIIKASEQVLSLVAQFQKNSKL

Molecular target: hMCD (Homo sapiens, UniProt O95822)
Assay: In vitro MCD inhibitory assay
Details: read-out: Ki, in vitro MCD inhibitory activities

Q: Which Ki does the source give for `CC(C)CCCN1CCC(NC(=O)N(c2ccc3nc(S)sc3c2)C(C)C)CC1` here?
A: 56.7 nM
